Laboratory results as given in patent US4755526A, “Method of inhibiting aromatase” (Eli Lilly and Company, priority 1984, dated 1988).

What was measured:
estrogen synthesis = assay: Estrogen synthesis inhibition in rats (uterine weight and ovarian steroid concentrations); format: in vivo, female Wistar rats; conditions: ovaries
Method: Immature female Wistar rats (45-55 grams) were divided into control and test groups of 2-8 animals each. Test compounds were administered for seven days either daily by gavage in corn oil or as a component of the diet. Control animals received either corn oil or diet without the test compound. Beginning on the fourth day of the test, all animals treated with the test compound and one half of the control animals were given a subcutaneous injection of 1.0 mg of testosterone propionate in corn oil. The remaining control animals received only an equivalent volume of corn oil. On the seventh day of the test, rats treated with testosterone propionate were injected subcutaneously with 100 μCi of [^3 H]-testosterone in 50 μl of 3:1 (v/v) saline-ethanol.
After two hours, the animals were killed by decapitation. Uteri were isolated, trimmed of extraneous connective tissue, and weighed. […] In the control animals treated with testosterone propionate, estrogens produced by aromatization stimulated the uterus resulting in an increase in weight.
Ovaries from rats treated with [^3 H]-testosterone were excised, cleaned of extraneous tissue, and homogenized in 2.5 ml of a 1.0 mM potassium phosphate buffer containing 3.0 mM MgCl2.6H2 O, 320 mM sucrose, and 0.25% Triton X-100 (polyethylene glycol p-isooctyl phenyl ether, Rohm and Haas) at pH 6.5. The ovarian steroids were extracted with 1.5 ml of 9:1 (v/v) toluene/ethanol to which had been added 25 to 100 mcg each of unlabelled estradiol, estriol, and estrone, and approximately 1000 dpm of [^14 C]-estradiol. The samples were vortexed, centrifuged at 500×g for 10 minutes, and the organic phase was transferred to a conical vial. Two additional extractions were performed on the residue in the same way. The pooled organic extracts were evaporated for subsequent thin-layer chromatography.
Ovarian proteins were precipitated by the addition of 5.0 ml of ethanol to the remaining aqueous phase. After an overnight incubation at 4° C., the samples were centrifuged at 1500×g for 10 minutes. The supernatant was discarded, and the pellet was dissolved in 0.3N potassium hydroxide. Protein was determined according to the method of Bradford, Analytical Biochemistry, 72, 248 (1976).
The organic residue from each above extraction was redissolved in 9:1 (v/v) dichloromethane/methanol. The solution of each sample was applied to separate silica gel thin layer chromatography plates which contained a fluorescent indicator. The plates were developed in the first dimension with 160:38:1.5:0.5 (v/v/v/v) dichloromethane/ethyl acetate/methanol/acetic acid to within 3 cm of the top of the plate. After air-drying, the plate was developed in the second dimension with 180:19:1 (v/v/v) dichloromethane/methanol/ammonium hydroxide. The plate was air-dried and viewed under 254 nm UV light.
The visible spots were marked and the plates were sprayed with primulin (0.001% in 4:1 v/v acetone/water) according to the method of Wright, J. Chromatography, 59, 220 (1971) which allowed for the identification of additional steroids under 365 nm UV light. The spots were scraped from the plate using a glass wool plugged Pasteur pipet attached to a vacuum line. The steroids were eluted directly into scintillation vials by the addition of 0.2 ml of dichloromethane followed by two washes each of 2.0 ml of methanol. The organic solvent was evaporated and 10.0 ml of scintillation fluid (Beckman Ready Solv-NA) was added to the vials. Samples were analyzed by liquid scintillation spectrometry. Corrections were made based on the recoveries of the [^14 C]-steroid. Steroid concentrations are expressed as femtomoles per milligram protein.

aromatase = target: T1, aromatase (Rattus norvegicus, UniProt P22443); assay: Aromatase inhibition in the rat ovarian microsome assay; format: biochemical; conditions: EC50: concentration required to achieve 50% inhibition of aromatase activity
T1 construct: ovarian microsomes are obtained from rats treated with pregnant mares serum gonadotropin; from tissue; host or cells: ovarian microsomes of rats treated with pregnant mares serum gonadotropin
T1 sequence (P22443 1-508): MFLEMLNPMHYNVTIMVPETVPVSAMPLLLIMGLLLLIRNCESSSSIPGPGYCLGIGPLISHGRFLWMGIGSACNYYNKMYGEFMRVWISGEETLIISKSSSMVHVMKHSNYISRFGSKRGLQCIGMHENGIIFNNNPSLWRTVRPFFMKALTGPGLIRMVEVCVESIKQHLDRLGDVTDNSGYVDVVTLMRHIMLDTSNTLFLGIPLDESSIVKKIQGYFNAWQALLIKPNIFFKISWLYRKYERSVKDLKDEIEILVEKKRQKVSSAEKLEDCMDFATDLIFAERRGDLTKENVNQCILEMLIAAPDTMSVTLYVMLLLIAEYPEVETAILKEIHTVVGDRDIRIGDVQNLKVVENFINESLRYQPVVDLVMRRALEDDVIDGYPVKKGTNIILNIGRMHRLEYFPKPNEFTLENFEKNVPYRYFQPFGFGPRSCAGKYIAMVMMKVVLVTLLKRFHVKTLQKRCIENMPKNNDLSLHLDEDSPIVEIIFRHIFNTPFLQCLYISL

[1] = 30 ppm in feed (approximately 3 mg/kg/day)
[2] = 300 ppm in feed (approximately 30 mg/kg/day)

Structure (SMILES)	Mean Steroid Concentration, estradiol (estrogen synthesis; [1])	Mean Steroid Concentration, estriol (estrogen synthesis; [1])	Mean Steroid Concentration, estrone (estrogen synthesis; [1])	Mean Steroid Concentration, estradiol (estrogen synthesis; [2])	Mean Steroid Concentration, estriol (estrogen synthesis; [2])	Mean Steroid Concentration, estrone (estrogen synthesis; [2])	EC50 (aromatase)
Clc1ccc(C(c2ccc(Cl)cc2)(c2cncnc2)n2ccnc2)cc1 [5-[bis(4-chlorophenyl)-1H--imidazol-1-ylmethyl]pyrimidine]	0.87 femtomoles per milligram of protein	1.87 femtomoles per milligram of protein	0.45 femtomoles per milligram of protein	0.59 femtomoles per milligram of protein	3.27 femtomoles per milligram of protein	0.57 femtomoles per milligram of protein	
Clc1ccc(C(c2ccccc2)n2ccnc2)cc1 (centres unmarked) [1-[(4-chlorophenyl)phenylmethyl]-1H--imidazole]			0.19 femtomoles per milligram of protein				
Clc1ccc(C(c2ccc(Cl)cc2)n2ccnc2)cc1 [1-[bis(4-chlorophenyl)methyl]imidazole]	0.00 femtomoles per milligram of protein	0.40 femtomoles per milligram of protein		0.00 femtomoles per milligram of protein	0.40 femtomoles per milligram of protein	0.08 femtomoles per milligram of protein	
COc1ccccc1C(c1ccccc1)n1ccnc1 (centres unmarked) [1-[(2-methoxyphenyl)phenylmethyl]-1H--imidazole nitrate]	1.31 femtomoles per milligram of protein	1.22 femtomoles per milligram of protein	1.53 femtomoles per milligram of protein	1.93 femtomoles per milligram of protein	2.07 femtomoles per milligram of protein	0.68 femtomoles per milligram of protein	
Clc1ccc(C(c2ccc(Cl)cc2)n2cnnc2)cc1 [4-[bis(4-chlorophenyl)methyl]-4H--1,2,4-triazole]			0.10 femtomoles per milligram of protein				
c1ccc2cc(Cn3ccnc3)ccc2c1 [1-(2-naphthalenylmethyl)-1H--imidazole hydrochloride]							270 nM

Where a name gives a salt, the structure may show the parent alone.
